Results from patent US12552854B2, “Peptides that block presentation of antigenic islet peptides by HLA-DQ8 and methods for treating type-1 diabetes” (Icahn School of Medicine at Mount Sinai, priority 2019, dated 2026).

Assay: Half-life and Intrinsic Clearance of RI-CT and RI-EXT (1 µM) after Incubation with Mouse Hepatocytes
Description: Table printed on a drawing sheet, FIG. 20
Title: Half-life and Intrinsic Clearance of RI-CT and RI-EXT (1 µM) after Incubation with Mouse Hepatocytes
First reader's note: The footnotes are printed inside the table frame as its last two rows; midazolam is a small-molecule positive control.

Midazolam*
CLint (mL/min/million cells): 0.010 mL/min/million cells
t1/2: 1.16 h
